Results: ChEMBL document CHEMBL1144321, “Synthesis and evaluation of novel peripherally restricted kappa-opioid receptor agonists” (Bioorg Med Chem Lett, 2005)

Chains of the proteins cited; added tags and fusions are not shown. Lines headed by an entry give the natural chain unless they say otherwise; changes in a name come on top.
UniProt P41145: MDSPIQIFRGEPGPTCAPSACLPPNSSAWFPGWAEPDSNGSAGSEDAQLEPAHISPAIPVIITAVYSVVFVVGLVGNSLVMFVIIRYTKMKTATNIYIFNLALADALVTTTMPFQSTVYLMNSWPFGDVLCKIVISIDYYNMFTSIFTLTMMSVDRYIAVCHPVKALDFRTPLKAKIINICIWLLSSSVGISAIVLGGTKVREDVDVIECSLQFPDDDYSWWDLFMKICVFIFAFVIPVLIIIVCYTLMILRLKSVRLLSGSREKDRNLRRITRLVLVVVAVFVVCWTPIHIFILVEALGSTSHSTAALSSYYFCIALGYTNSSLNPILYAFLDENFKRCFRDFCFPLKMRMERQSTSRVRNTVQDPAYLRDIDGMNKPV

Tests used:
[1] = target: Kappa-type opioid receptor (Homo sapiens, UniProt P41145); experiment: Displacement of bound [3H]diprenorphine from membranes expressing cloned human kappa opioid receptor
Mus musculus [2] = experiment: Effective dose to inhibit acetic acid-inducedwrithing after subcutaneous administration in mice
Mus musculus [3] = species on record: Mus musculus; experiment: Peripheral restriction index (Platform sedation ED50/Writhing ED50) in mouse

CN(C(=O)Cc1ccc(C(F)(F)F)cc1)[C@H](CN1CCCC1)c1cccc([N+](=O)[O-])c1
Ki [1]: 0.63 nM

CN(C(=O)Cc1ccc(C(F)(F)F)cc1)[C@H](CN1CCCC1)c1cccc(NS(C)(=O)=O)c1
Ki [1]: 0.36 nM
ED50 (Mus musculus [2]): 0.56 mg/kg
Index (Mus musculus [3]): 160

CN(C(=O)Cc1ccc(C(F)(F)F)cc1)C(CN1CCCC1)c1cccc(O)c1 (racemic)
Ki [1]: 0.44 nM

CN(C(=O)Cc1ccc(C(F)(F)F)cc1)C(CN1CCCC1)c1cccc(OCC(=O)O)c1 (racemic)
Ki [1]: 3.7 nM
ED50 (Mus musculus [2]): 1.7 mg/kg
Index (Mus musculus [3]): > 180

CN(C(=O)Cc1ccc(C(F)(F)F)cc1)[C@H](CN1CCCC1)c1cccc(N(CC(=O)O)CC(=O)O)c1
Ki [1]: 2300 nM

CN(C(=O)Cc1ccc(C(F)(F)F)cc1)C(CN1CCCC1)c1cccc(OCC(=O)OC(C)(C)C)c1 (racemic)
Ki [1]: 2.9 nM
ED50 (Mus musculus [2]): 1.7 mg/kg
Index (Mus musculus [3]): 81

CN(C(=O)Cc1ccc(Cl)c(Cl)c1)C(CN1CCCC1)c1cccc(OCC(=O)O)c1 (centres undefined) [ICI-204448]
ED50 (Mus musculus [2]): 1.6 mg/kg

CN(C(=O)Cc1ccc(C(F)(F)F)cc1)[C@H](CN1CCCC1)c1cccc(NC(=O)CCC(=O)O)c1
Ki [1]: 9.5 nM
ED50 (Mus musculus [2]): 0.87 mg/kg
Index (Mus musculus [3]): 54

COc1cccc(C(CN2CCCC2)N(C)C(=O)Cc2ccc(C(F)(F)F)cc2)c1 (racemic)
Ki [1]: 0.53 nM
ED50 (Mus musculus [2]): 0.15 mg/kg

CN(C(=O)Cc1ccc(C(F)(F)F)cc1)[C@H](CN1CCCC1)c1ccccc1
ED50 (Mus musculus [2]): 0.005 mg/kg
Index (Mus musculus [3]): 25

CN(C(=O)Cc1ccc(C(F)(F)F)cc1)[C@H](CN1CCCC1)c1cccc(NS(N)(=O)=O)c1
Ki [1]: 0.48 nM
ED50 (Mus musculus [2]): 0.74 mg/kg
Index (Mus musculus [3]): 18

CN(C(=O)Cc1ccc(C(F)(F)F)cc1)[C@H](CN1CCCC1)c1cccc(N)c1
Ki [1]: 0.31 nM
